B1: Peptide-24 (synthetic, biotinylated) (peptide)
peptide: GGLECFDPEIPEAFCIGGGGS
modifications: C-terminal [PEG4]Lys(biotin)-NH2
B2: Peptide-22 (synthetic, biotinylated) (peptide)
peptide: GGEWCLFDPDVPTCQDGGGGS
modifications: C-terminal [PEG4]Lys(biotin)-NH2
B3: Peptide-25 (synthetic, biotinylated) (peptide)
peptide: GGQGCGTIADPEPHCWGGGGS
modifications: C-terminal [PEG4]Lys(biotin)-NH2
B4: SP34 (Ab-9, Ab-10) (antibody, mouse IgG1, V domains shown)
VH: EVQLVESGGGLVQPKGSLKLSCAASGFTFNTYAMNWVRQAPGKGLEWVARIRSKYNNYATYYADSVKDRFTISRDDSQSILYLQMNNLKTEDTAMYYCVRHGNFGNSYVSWFAYWGQGTLVTVSS
VL: QAVVTQESALTTSPGETVTLTCRSSTGAVTTSNYANWVQEKPDHLFTGLIGGTNKRAPGVPARFSGSLIGDKAALTITGAQTEDEAIYFCALWYSNLWVFGGGTKLTVLQ
notes: used naked or chemically biotinylated; also called SP34-biotin
B5: Peptide-28 (synthetic, biotinylated) (peptide)
peptide: GGLCMIGDWLPGDVCLGGGGS
modifications: C-terminal [PEG4]Lys(biotin)-NH2
B6: Peptide-18 (synthetic, biotinylated) (peptide)
peptide: QGQSGQGYLWGCEWNCGGITTGGGGS
modifications: C-terminal [PEG4]Lys(biotin)-NH2

Assays:
[1] = target: B4; assay: competition ELISA, peptide vs SP34 binding captured CD3
[2] = target: B6; assay: ELISA, antibody titrated on captured peptide
[3] = target: B3; assay: ELISA, antibody titrated on captured peptide
[4] = target: B5; assay: ELISA, antibody titrated on captured peptide
[5] = target: T1, Peptide-21 (synthetic, biotinylated) (C-terminal [PEG4]Lys(biotin)-NH2); assay: ELISA, antibody titrated on captured peptide
T1 peptide: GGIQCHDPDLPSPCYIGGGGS

[6] = target: T2, Peptide-20 (synthetic, biotinylated) (C-terminal [PEG4]Lys(biotin)-NH2); assay: ELISA, antibody titrated on captured peptide
T2 peptide: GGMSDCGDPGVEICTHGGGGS

[7] = target: T3, Peptide-23 (synthetic, biotinylated) (C-terminal [PEG4]Lys(biotin)-NH2); assay: ELISA, antibody titrated on captured peptide
T3 peptide: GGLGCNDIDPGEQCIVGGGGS

[8] = target: T4, Peptide-19 (synthetic, biotinylated) (C-terminal [PEG4]Lys(biotin)-NH2); assay: ELISA, antibody titrated on captured peptide
T4 peptide: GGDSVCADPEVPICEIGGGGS

[9] = target: T5, Peptide-27 (synthetic, biotinylated) (C-terminal [PEG4]Lys(biotin)-NH2); assay: ELISA, antibody titrated on captured peptide
T5 peptide: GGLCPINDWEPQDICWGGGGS

[10] = target: B2; assay: ELISA, antibody titrated on captured peptide
[11] = target: B1; assay: ELISA, antibody titrated on captured peptide
[12] = target: T6, Peptide-26 (synthetic, biotinylated) (C-terminal [PEG4]Lys(biotin)-NH2); assay: ELISA, antibody titrated on captured peptide
T6 peptide: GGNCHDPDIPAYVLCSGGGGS

B1 showed an IC50 [1] of 2220 nM.

B2 was tested, and the IC50 [1] was 1810 nM.

B3 was tested, and the IC50 [1] was 2490 nM.

For B4, the EC50 [2] was 2.75 nM, the EC50 [3] was 1.95 nM and the EC50 [4] was 6.76 nM. For the same binder, the EC50 [5] was 8.25 nM, the EC50 [6] was 7.13 nM and the EC50 [7] was 8.2 nM. The EC50 [8] was 8.03 nM, the EC50 [9] was 7.62 nM and the EC50 [10] was 2.56 nM. It also gave an EC50 [11] of 2.66 nM and an EC50 [12] of 8.69 nM.

B5 showed an IC50 [1] of 96000 nM.

With B6 the IC50 [1] was 4760 nM.
